Source: US9018381B2, “Chemical compounds” (AstraZeneca AB, priority 2010, dated 2015)
pIC50: −log10 of the molar value.

Amino acid sequences for entries named in this document (tags omitted). Residues count along the entry.
UniProt Q07817, 1-209: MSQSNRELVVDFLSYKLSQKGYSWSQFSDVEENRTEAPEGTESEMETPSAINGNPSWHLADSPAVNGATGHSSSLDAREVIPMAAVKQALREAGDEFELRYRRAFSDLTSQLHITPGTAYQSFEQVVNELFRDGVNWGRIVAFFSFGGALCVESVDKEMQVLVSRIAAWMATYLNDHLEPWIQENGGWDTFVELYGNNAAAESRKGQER

Biological target: Bcl-XL (Homo sapiens (Human), UniProt Q07817)
Experiment: Bcl-XL FP assay (fluorescence polarization competitive binding)
Conditions: C-terminal 6×HIS tagged Bcl-XL (aa 1-209), FITC-Bim BH-3 peptide tracer
Excerpt: Bcl-xL and Bcl-2 FP binding affinity of compound(s) of Formulae (I), (I-a), (I-b), (I-c), (I-d) and/or (I-e) may be determined using a variety of known methods. One such assay is a sensitive and quantitative in vitro binding assay using fluorescence polarization (“FP”) described by Wang, J.-L.; Zhang, Z-J.; Choksi, S.; Sjam. S.; Lu, Z.; Croce, C. M.; Alnemri, E. S.; Komgold, R.; Huang, Z. Cell permeable Bcl-2 binding peptides: a chemical approach to apoptosis induction in tumor cells. Cancer Res. 2000, 60, 1498-1502).
Additionally, the binding affinity of compound(s) of Formulae (I), (I-a), (I-b), (I-c), (I-d) and/or (I-e) to Bcl-2 protein in vitro was determined by a competitive binding assay based on fluorescence polarization. For example, fluorescence polarization (“FP”) assays may be developed using a c-terminal 6×HIS tagged Bcl-2 (aa 1-204) and a C-terminal 6×HIS tagged Bcl-XL (aa 1-209). The tracer may be a synthetic peptide BH-3 peptide Bim conjugated to Fluorescein isothiocyanate (FITC—[…]). […] Samples may be read after 20-minute incubation. Fluorescence polarization values may be plotted as a function of the antagonist concentration.
When tested in an FP assay based on the FP assay described above, the inhibitory activity of the following examples were measured at the IC50s (μM) shown in Table 1.

N#C[C@@H](c1ccccc1-c1ccc(Cl)cc1)C1CCN(c2ccc(C(=O)NS(=O)(=O)c3ccc(N[C@H](CCN4CCOCC4)CSc4ccccc4)c(S(=O)(=O)C(F)(F)F)c3)cc2)CC1 (single isomer, unassigned) [Example 17]
pIC50: 9.00
